# Measurements: patent US9284358B2 (UNIVERSITY OF UTAH RESEARCH FOUNDATION, priority 2006, dated 2016)
# By UniProt entry, the sequences of proteins in these tests, tags left out. Residues count along the entry.
# UniProt P43144, 26-479 limits assumed: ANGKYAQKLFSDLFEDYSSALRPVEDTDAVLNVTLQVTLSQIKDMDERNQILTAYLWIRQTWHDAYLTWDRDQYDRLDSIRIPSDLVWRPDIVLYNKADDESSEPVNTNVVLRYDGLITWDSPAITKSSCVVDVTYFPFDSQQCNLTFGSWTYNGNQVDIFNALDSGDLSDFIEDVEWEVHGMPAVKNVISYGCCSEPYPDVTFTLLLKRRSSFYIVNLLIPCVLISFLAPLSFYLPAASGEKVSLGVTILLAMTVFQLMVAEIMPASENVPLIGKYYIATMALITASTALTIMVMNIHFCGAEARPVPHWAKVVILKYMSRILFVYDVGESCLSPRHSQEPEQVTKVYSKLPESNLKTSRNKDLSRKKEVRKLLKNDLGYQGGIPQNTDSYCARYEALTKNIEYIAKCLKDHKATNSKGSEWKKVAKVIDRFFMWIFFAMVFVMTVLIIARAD
# UniProt Q9GZZ6, 25-450: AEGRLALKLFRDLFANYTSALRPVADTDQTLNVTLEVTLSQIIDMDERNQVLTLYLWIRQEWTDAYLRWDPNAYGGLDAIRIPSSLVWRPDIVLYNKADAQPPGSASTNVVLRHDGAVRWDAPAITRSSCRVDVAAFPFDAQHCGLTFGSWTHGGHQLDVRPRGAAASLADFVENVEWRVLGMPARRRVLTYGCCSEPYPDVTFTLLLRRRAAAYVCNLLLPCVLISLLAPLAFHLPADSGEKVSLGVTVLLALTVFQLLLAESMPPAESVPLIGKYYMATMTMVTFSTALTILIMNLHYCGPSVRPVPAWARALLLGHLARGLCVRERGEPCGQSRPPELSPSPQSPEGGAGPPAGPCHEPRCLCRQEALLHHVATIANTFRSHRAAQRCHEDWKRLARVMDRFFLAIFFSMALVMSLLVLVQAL
# UniProt Q9UGM1, 26-479 limits assumed: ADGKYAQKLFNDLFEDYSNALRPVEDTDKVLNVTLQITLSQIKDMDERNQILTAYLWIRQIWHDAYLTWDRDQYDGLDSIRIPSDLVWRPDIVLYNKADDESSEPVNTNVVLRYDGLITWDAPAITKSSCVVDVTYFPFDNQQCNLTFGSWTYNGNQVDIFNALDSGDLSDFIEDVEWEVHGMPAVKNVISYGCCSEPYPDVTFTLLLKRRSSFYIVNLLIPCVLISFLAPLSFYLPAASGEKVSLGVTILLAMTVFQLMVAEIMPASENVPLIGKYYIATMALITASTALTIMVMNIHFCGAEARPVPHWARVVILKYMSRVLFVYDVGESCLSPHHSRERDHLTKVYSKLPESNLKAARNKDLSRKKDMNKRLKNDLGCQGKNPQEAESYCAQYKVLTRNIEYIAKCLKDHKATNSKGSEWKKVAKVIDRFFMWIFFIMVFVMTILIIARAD
# Target: T1, α9α10 nAChR (Rattus norvegicus, UniProt P43144+Q9JLB5)
# T1 construct: expressed in transfected cells; host or cells: oocytes
# Assay: cell-based
row,SMILES,IC50
1,N=C(N)NCCC[C@H](NC(=O)[C@@H]1CSSC[C@@H]2NC(=O)[C@@H](NC(=O)CN)CSSC[C@H](NC(=O)[C@H](CCCNC(=N)N)NC(=O)[C@@H]3CCCN3C(=O)[C@H](CC(=O)O)NC(=O)[C@H](CO)NC2=O)C(=O)N[C@@H](CCCNC(=N)N[N+](=O)[O-])C(=O)N[C@@H](Cc2ccc(O)cc2)C(=O)N[C@@H](CCCNC(=N)N)C(=O)N1)C(=O)O [SEQ ID NO:10],0.0023 µM
2,N=C(N)NCCC[C@H](NC(=O)[C@@H]1CSSC[C@@H]2NC(=O)[C@@H](NC(=O)CN)CSSC[C@H](NC(=O)[C@H](CCCNC(=N)N)NC(=O)[C@@H]3CCCN3C(=O)[C@H](CC(=O)O)NC(=O)[C@H](CO)NC2=O)C(=O)N[C@@H](CCCN)C(=O)N[C@@H](Cc2ccc(O)cc2)C(=O)N[C@@H](CCCNC(=N)N)C(=O)N1)C(=O)O [SEQ ID NO:12],> 1 µM
3,CC(=O)NCCC[C@@H]1NC(=O)[C@@H]2CSSC[C@H](NC(=O)CN)C(=O)N[C@@H](CSSC[C@@H](C(=O)N[C@@H](CCCNC(=N)N)C(=O)O)NC(=O)[C@H](CCCNC(=N)N)NC(=O)[C@H](Cc3ccc(O)cc3)NC1=O)C(=O)N[C@@H](CO)C(=O)N[C@@H](CC(=O)O)C(=O)N1CCC[C@H]1C(=O)N[C@@H](CCCNC(=N)N)C(=O)N2 [SEQ ID NO:13],> 1 µM
4,N=C(N)NCCC[C@H](NC(=O)[C@@H]1CSSC[C@@H]2NC(=O)[C@@H](NC(=O)CN)CSSC[C@H](NC(=O)[C@H](CCCNC(=N)N)NC(=O)[C@@H]3CCCN3C(=O)[C@H](CC(=O)O)NC(=O)[C@H](CO)NC2=O)C(=O)N[C@@H](CCCNC(=N)N)C(=O)N[C@@H](Cc2ccc(O)c(I)c2)C(=O)N[C@@H](CCCNC(=N)N)C(=O)N1)C(=O)O [SEQ ID NO:15],0.0035 µM
5,N=C(N)NCCC[C@H](NC(=O)[C@@H]1CSSC[C@@H]2NC(=O)[C@@H](NC(=O)CN)CSSC[C@H](NC(=O)[C@H](CCCNC(=N)N)NC(=O)[C@@H]3CCCN3C(=O)[C@H](CC(=O)O)NC(=O)[C@H](CO)NC2=O)C(=O)N[C@@H](CCCNC(N)=O)C(=O)N[C@@H](Cc2ccc(O)c(I)c2)C(=O)N[C@@H](CCCNC(=N)N)C(=O)N1)C(=O)O [SEQ ID NO:18],0.0011 µM
6,N=C(N)NCCC[C@H](NC(=O)[C@@H]1CSSC[C@@H]2NC(=O)[C@@H](NC(=O)CN)CSSC[C@H](NC(=O)[C@H](CCCNC(=N)N)NC(=O)[C@@H]3CCCN3C(=O)[C@H](CC(=O)O)NC(=O)[C@H](CO)NC2=O)C(=O)N[C@@H](CCCNC(=N)N[N+](=O)[O-])C(=O)N[C@@H](Cc2ccc(O)c(I)c2)C(=O)N[C@@H](CCCNC(=N)N)C(=O)N1)C(=O)O [SEQ ID NO:19],0.0013 µM

# Target: T2, human α9α10 nAChR (Homo sapiens, UniProt Q9GZZ6+Q9UGM1)
# T2 construct: expressed in transfected cells; host or cells: oocytes
# Assay: cell-based
row,SMILES,IC50
1,N=C(N)NCCC[C@H](NC(=O)[C@@H]1CSSC[C@@H]2NC(=O)[C@@H](NC(=O)CN)CSSC[C@H](NC(=O)[C@H](CCCNC(=N)N)NC(=O)[C@@H]3CCCN3C(=O)[C@H](CC(=O)O)NC(=O)[C@H](CO)NC2=O)C(=O)N[C@@H](CCCN)C(=O)N[C@@H](Cc2ccc(O)cc2)C(=O)N[C@@H](CCCNC(=N)N)C(=O)N1)C(=O)O [SEQ ID NO:12],> 1 µM
2,C[C@@H](O)[C@@H]1NC(=O)[C@@H]2CSSC[C@@H](C(=O)N[C@@H](CCCNC(=N)N)C(=O)O)NC(=O)[C@H](CCC(N)=O)NC(=O)[C@H](Cc3ccc(O)c(I)c3)NC(=O)[C@H](CCCNC(N)=O)NC(=O)[C@H](C[Se][Se]C[C@H](NC(=O)CN)C(=O)N2)NC(=O)[C@H](CCCNC(=N)N)NC(=O)[C@@H]2CCCN2C(=O)[C@H](CC(=O)O)NC1=O [SEQ ID NO:28],0.087 µM
3,CC(C)C[C@H](NC(=O)[C@@H]1CSSC[C@@H]2NC(=O)[C@@H](NC(=O)CN)C[Se][Se]C[C@H](NC(=O)[C@H](CCCNC(=N)N)NC(=O)[C@@H]3CCCN3C(=O)[C@H](CC(=O)O)NC(=O)[C@H]([C@@H](C)O)NC2=O)C(=O)N[C@@H](CCCNC(N)=O)C(=O)N[C@@H](Cc2ccc(O)c(I)c2)C(=O)N[C@@H](CCC(N)=O)C(=O)N1)C(=O)O [SEQ ID NO:29],0.135 µM
4,N=C(N)NCCC[C@H](NC(=O)[C@@H]1CSSC[C@@H]2NC(=O)[C@@H](NC(=O)CN)C[Se][Se]C[C@H](NC(=O)[C@H](CCCNC(=N)N)NC(=O)[C@@H]3CCCN3C(=O)[C@H](CC(=O)O)NC(=O)[C@H](CO)NC2=O)C(=O)N[C@@H](CCCNC(=N)N)C(=O)N[C@@H](Cc2ccc(O)cc2)C(=O)N[C@@H](CCCNC(=N)N)C(=O)N1)C(=O)O [SEQ ID NO:30],0.242 µM
5,N=C(N)NCCC[C@H](NC(=O)[C@@H]1CSSC[C@@H]2NC(=O)[C@@H](NC(=O)CN)CSSC[C@H](NC(=O)[C@H](CCCNC(=N)N)NC(=O)[C@@H]3CCCN3C(=O)[C@H](CC(=O)O)NC(=O)[C@H](CO)NC2=O)C(=O)N[C@@H](CCCNC(=N)N)C(=O)N[C@@H](Cc2ccc(O)c(I)c2)C(=O)N[C@@H](CCCNC(=N)N)C(=O)N1)C(=O)O [SEQ ID NO:41],0.107 µM
6,N=C(N)NCCC[C@H](NC(=O)[C@@H]1CSSC[C@@H]2NC(=O)[C@@H](NC(=O)CN)CSSC[C@H](NC(=O)[C@H](CCCNC(=N)N)NC(=O)[C@@H]3CCCN3C(=O)[C@H](CC(=O)O)NC(=O)[C@H](CO)NC2=O)C(=O)N[C@@H](CCCNC(N)=O)C(=O)N[C@@H](Cc2ccc(O)c(I)c2)C(=O)N[C@@H](CCCNC(=N)N)C(=O)N1)C(=O)O [SEQ ID NO:43],0.046 µM
